# Measured values reported in patent US20200031771A1, “SUBSTITUTED PHENYLPROPIONIC ACID ENANTIOMER AND MANUFACTURING METHOD, COMPOSITION, AND APPLICATION OF SAME” (SHENZHEN CHIPSCREEN BIOSCIENCES CO., LTD., priority 2016, published 2020).
# Test system: db/db mice
# Test: Glucose tolerance test (OTGG) in db/db mice after 14 days of administration
# Assay type: in vivo, mouse
# Conditions: oral 2 g/kg glucose, 0-120 min, n = 10
# Method: The route of administration was oral, the dose was 20 mg/kg in the administration group and 5 mg/kg in the control group, the frequency of administration was once a day, and the administration period was 14 days. […] On days 0, 3, 6, 9, 12, and 14, after fasting for 6 hours after administration, blood was collected from the tail vein and fasting blood glucose levels was measured by a blood glucose meter and recorded.
# After 14 days of administration, the animals were fasted overnight (<10 hours), and orally given 2 g/kg of glucose on the next day. Blood was collected from the tail vein at the 0 (pre-administration or fasting blood glucose level), 15, 30, 60 and 120 minutes after administration, respectively, and blood glucose levels were then measured by blood glucose meter and recorded.
smiles,measurement,value
"CN(CCOc1ccc(CC2SC(=O)NC2=O)cc1)c1ccccn1 (stereo not shown) [rosiglitazone, reference compound]","Glucose tolerance test AUC, average value",45.76
